This is an account of results in patent US20090209577A1, “Novel Triazolopyridine Compounds” (PFIZER INC., priority 2004, published 2009).

Chains of the proteins cited; added tags and fusions are not shown.
UniProt Q16539, whole entry: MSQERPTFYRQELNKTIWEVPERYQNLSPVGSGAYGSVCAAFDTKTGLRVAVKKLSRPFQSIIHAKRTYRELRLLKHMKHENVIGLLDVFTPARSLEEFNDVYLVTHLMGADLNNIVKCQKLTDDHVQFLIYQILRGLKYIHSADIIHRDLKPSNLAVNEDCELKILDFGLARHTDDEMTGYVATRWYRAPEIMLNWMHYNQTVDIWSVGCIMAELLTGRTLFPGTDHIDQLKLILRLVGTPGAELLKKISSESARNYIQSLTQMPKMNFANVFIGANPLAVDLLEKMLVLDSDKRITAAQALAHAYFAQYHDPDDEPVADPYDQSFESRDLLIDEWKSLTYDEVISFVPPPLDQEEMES

The IC50 is the concentration needed to halve the response being measured. Read a low IC50 as greater potency.

This test deals with T1, human p38 kinase alpha (Homo sapiens, UniProt Q16539).
T1 construct: The coding region of the human p38a cDNA was obtained by PCR-amplification from RNA isolated from the human monocyte cell line THP.1; made in house; host or cells: E. coli DH10B
As to the kind of experiment: p38 kinase in vitro assay (PHAS-I / 32P-ATP format or EGFRP / 33P-ATP format). The following applies: activated human p38 kinase alpha, 50 μM unlabeled ATP; two assay formats, table does not say which. The class given is biochemical. How it is done:
The ability of compounds to inhibit human p38 kinase alpha was evaluated using two in vitro assay methods. In the first method, activated human p38 kinase alpha phosphorylates a biotinylated substrate, PHAS-I (phosphorylated heat and acid stable protein-insulin inducible), in the presence of gamma ^32P-ATP (^32P-ATP). PHAS-I was biotinylated prior to the assay and provides a means of capturing the substrate, which is phosphorylated during the assay. p38 Kinase was activated by MKK6. Compounds were tested in 10 fold serial dilutions over the range of 100 μM to 0.001 μM using 1% DMSO. Each concentration of inhibitor was tested in triplicate.
All reactions were carried out in 96 well polypropylene plates. […]
Following incubation, 20 μl of reaction mixture was transferred to a high capacity streptavidin coated filter plate (SAM-streptavidin-matrix, Promega) prewetted with phosphate buffered saline. […] The plates were sealed and counted.
A second assay format was also employed that is based on p38 kinase alpha induced phosphorylation of EGFRP (epidermal growth factor receptor peptide, a 21 mer) in the presence ^33P-ATP. […] Compounds were evaluated in 50 μl reaction volumes in the presence of 25 mM Hepes pH 7.5, 10 mM magnesium acetate, 4% glycerol, 0.4% bovine serum albumin, 0.4 mM DTT, 50 μM unlabeled ATP, 25 μg EGFRP (200 μM), and 0.05 μCi ^33P-ATP. […]

Each structure is given as a SMILES string.

`Cc1ccc(C(N)=O)cc1-c1nnc2ccc(CCc3ccc(F)cc3F)cn12` (racemic) [Example 22, racemic 3-{6-[2-(2,4-difluorophenyl)ethyl]-5,6,7,8-tetrahydro[1,2,4]triazolo[4,3-a]pyridin-3-yl}-4-methylbenzamide] displayed an IC50 of 40.2 nM.
